Test system: Hepatocyte spheroids
Test: Cell viability is assessed by cellular ATP assay using CellTiter-Glo Luminescent kit. Viability is expressed as average RLU from biological replicates and normalized to negative control.Toxicity is defined as those with normalized ATP significantly less than 80 percent of the negative control.
Type: functional, Homo sapiens
Set-up: unit not given here

Compound: CCCS(=O)(=O)c1nc(NC2CC2)cc(-c2ccc3c(ccn3C3CC(C)(C)NC(C)(C)C3)c2)n1
- Proliferation (Concentration range 10nM-10uM): 0.068

Compound: CCOC(=O)CCNc1cc(N2CCc3ccccc3CC2)nc(-c2ccccn2)n1
- Proliferation (Concentration range 10nM-10uM): 0.01732

Compound: CC(C)NC(=O)N1CC[C@H](NC2=Nc3cc(F)ccc3N(CC(F)F)c3ccc(Cl)cc32)C1
- Proliferation: 0.3239

Compound: O=C(c1ccc(C(=O)N2CCC(N3CCCC3)CC2)c(Nc2ccccc2)c1)N1CCC(N2CCCC2)CC1
- Proliferation (Concentration range 5nM-5uM): 0.005005

Compound: CCCc1cc(C)[nH]c(=O)c1CNC(=O)c1cc(-c2ccc(N3CCN(C(C)C)CC3)nc2)cc2c1cnn2C(C)C
- Proliferation (Concentration range 5nM-5uM): 0.0247

— ChEMBL document CHEMBL5724564, “Patient-derived NASH model to assess the effects of chemical probes on hepatocyte regenerations” (2024)
